# Experiments:
# [1] = system: Daoy medulloblastoma cells; experiment: MTT cytotoxicity and median-effect (CI) analysis, Daoy;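 further: drugs applied at fixed ratios over eight concentrations for 72 h, survival expressed against untreated control wells, affected fraction (fa) derived per well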
# SW480 colon cancer cells = experiment: MTT cytotoxicity and median-effect (CI) analysis, SW480; format: cell-based, human; conditions: SW480 cells (FIG. 1A)
# [2] = system: Daoy (medulloblastoma) tumors; experiment: Efficacy against Daoy (medulloblastoma) tumors in nude mice, Kaplan-Meier; conditions: Daoy tumors s.c., i.v. at days 17, 23 and 29
compound,measurement,setting,value
"CC[C@]1(O)C[C@H]2CN(CCc3c([nH]c4ccccc34)[C@@](C(=O)OC)(c3cc4c(cc3OC)N(C=O)[C@H]3[C@@](O)(C(=O)OC)[C@H](OC(C)=O)[C@]5(CC)C=CCN6CC[C@]43[C@@H]65)C2)C1 [Vincristine (VCR), Vincristine]",potency of VCR relative to TPT,[1],15 fold
same,potency of VCR relative to TPT,SW480 colon cancer cells,4 fold
same,"therapeutic efficacy (Kaplan-Meier, tumor ≧1000 mg as endpoint)",[2],better than treatment with saline
same,"therapeutic efficacy (Kaplan-Meier, tumor ≧1000 mg as endpoint)",[2]; listed as Free VCR,more efficacious for treatment of medulloblastome than free TPT

# From patent US20130052259A1, “LIPOSOMES COMPRISING AMPHIPATHIC DRUGS AND METHOD FOR THEIR PREPARATION” (priority 2010, published 2013)
